The experiment concerns the target T1, ERβ (Homo sapiens, UniProt Q92731).
T1 construct: pSG5-ERα/β FL (Heg0/ERβ0); expressed in transfected cells; host or cells: U-20S (U-2 OS) cells, transient transfection with FuGENE 6
Put plainly: Transactivation test for estrogenic agonists and antagonists, ERβ, U-20S cells, luciferase reporter. In kind it is cell-based. On the technique in general: In a reporter assay the amount or activity of a reporter protein is the signal.

Amino acid sequences for entries named in this document (tags omitted).
UniProt Q92731, whole entry, species assumed: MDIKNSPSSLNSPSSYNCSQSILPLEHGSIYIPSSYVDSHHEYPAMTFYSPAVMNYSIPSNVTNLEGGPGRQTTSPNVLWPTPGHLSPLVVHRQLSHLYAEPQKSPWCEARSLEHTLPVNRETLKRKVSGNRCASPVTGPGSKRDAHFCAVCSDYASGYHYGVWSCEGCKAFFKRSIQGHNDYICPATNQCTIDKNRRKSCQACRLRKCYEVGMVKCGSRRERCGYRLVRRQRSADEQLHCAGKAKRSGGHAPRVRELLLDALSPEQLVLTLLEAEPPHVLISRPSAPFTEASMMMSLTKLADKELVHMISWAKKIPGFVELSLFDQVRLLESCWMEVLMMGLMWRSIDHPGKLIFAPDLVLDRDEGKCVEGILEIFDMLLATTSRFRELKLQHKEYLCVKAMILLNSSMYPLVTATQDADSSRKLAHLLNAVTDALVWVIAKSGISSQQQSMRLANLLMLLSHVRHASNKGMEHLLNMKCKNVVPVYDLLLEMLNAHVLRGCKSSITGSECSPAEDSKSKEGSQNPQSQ

Regarding `C[C@]12CC[C@@H]3c4ccc(O)cc4C[C@@H](CCCCCCCCC[S+]([O-])CCCC(F)(F)C(F)(F)F)[C@H]3[C@@H]1CC[C@@H]2O` (some centres unmarked) [Ref.^1, fulvestrant, reference compound], where the note is “luciferase activity”, the “Efficacy[%] ERβ” value turned out to be 100%. The “EMR (EC50 )[%] ERβ” value (potency relative to reference fulvestrant = 100) is reported as 100%.
